Values of other authors in patent US5872104A, “Combinations and methods for reducing antimicrobial resistance” (Oridigm Corporation, priority 1994, dated 1999).

Columns and labels:
[1] = tested on: 28S rRNA, 18S rRNA and tRNA; conditions: NPA 10 μM; c^3 -NPA 10 μM; c^3 -Ari 100 μM; cited from earlier work
[2] = tested on: RNA methylation in human colon carcinoma; conditions: cited from earlier work
[3] = tested on: tumor; conditions: in vivo; cited from earlier work
[4] = tested on: sixteen bacteria; conditions: cited from earlier work
[5] = tested on: internal m^6 A of late SV40 mRNA; conditions: cited from earlier work
[6] = mouse, in vivo; cited from earlier work

Row | Compound | methylation of 28S rRNA, 18S rRNA and tRNA [1] | RNA methylation [2] | RNA synthesis (transcription) [2] | antitumor activity [3] | bacteria sensitive out of sixteen ([4]; agar plates) | growth sensitivity in broth culture ([4]; broth culture, concentrations as high as 4 mM) | fold reduction of internal m^6 As ([5]; 2 mg/ml) | fold reduction of internal m^6 As ([5]; 5 mg/ml) | LD50 [6]
1 | Nc1ncnc2c1ncn2[C@@H]1C=C(CO)[C@@H](O)[C@H]1O [NPA, neplanocin A] | inhibit the methylation of 28S rRNA, 18S rRNA and tRNA | inhibitor of RNA methylation | not of RNA synthesis (transcription) | significant antitumor activity in vivo | only two were determined to be sensitive | None of the sixteen showed any growth sensitivity in broth culture |  |  | 
2 | NC1(C(=O)O)CCCC1 [cycloleucine, 1-aminocyclopentane-1-carboxylic acid] |  |  |  |  |  |  | 10 fold | 100 fold | 309 mg/kg

Like-named read-outs stand apart in the source and are kept apart here.
